A549 viability: A549 cytotoxicity, counter-screen for Nrf2 inhibitors. Potency, µM (highest dose often 46 µM), inactives show at the highest dose activity change, negative = cytotoxicity, actives largely listed as inhibitors. A549 ARE-Fluc cells, CellTiter-Fluor viability, 18-24 h. 0.16% of 390,000 active; further: potency means the concentration at half of the fitted maximal effect; on the % scale 0 is the no-effect control and ±100 the full control effect
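A549 ARE_Fluc cells in 5% FBS OPTI-MEM were exposed to compounds in concentration-response for 18-24 h at 37 deg C. Viability was read by CellTiter-Fluor fluorescence (Ex 405/Em 525) after 30 min, before the luciferase read.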
p53 reactivation: mutant p53 re-activation in reporter cells; H1299 p53-A138V BP100-luciferase reporter, luminescence, 24 h; Potency, µM (top dose mostly 92.2 µM), for inactives: at the highest dose activity change, positive = activation, most hits filed as activators; 0.063% of 320,000 active; further: potency means the concentration at half of the fitted maximal effect; % of control where 0% means no effect; nearly all actives have a fitted effect of over 45% in size
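p53-null H1299 cells stably carrying temperature-sensitive p53-A138V and a BP100-luciferase reporter were pinned with compounds (4-point, 1:5 series) and held 24 hrs at 37 deg C. Luminescence was read 10 min after detection reagent.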
Nrf2 block: inhibitors of Nrf2 signaling. A549 ARE-Fluc reporter, luciferase luminescence, 18-24 h. Potency, µM (titrated, usually from 46 µM), inactives show at the highest dose activity change, negative = inhibition, hits mostly inhibitors. 2.1% of 360,000 active. AID 504444; further: potency means the concentration at half of the fitted maximal effect; on the % scale 0 is the no-effect control and ±100 the full control effect; nearly all actives have a fitted effect of over 60% in size
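In this cell-based qHTS, ARE-driven firefly luciferase in A549 cells reports Nrf2 activity; the luminescent signal after BugLite lysis is the measured value, with a prior CellTiter-Fluor read for cell health.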
miR-21 reporter: miR-21 reporter, rising signal. 340,000 tested, under 10 active. Potency, µM (highest dose often 38.3 µM), for the others: at the highest dose reporter change, positive = more light. HeLa miR-21 FLuc reporter, luciferase, 48 h. AID 2288; active = well fitted rising curve with a large enough effect; inconclusive = small, poorly fitted or top-dose-only effect; inactive = no such curve, though single readings can be large or run the other way;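 further: % of control where 0% means no effect; miR-21 action dims this reporter so a rising signal means less miR-21 action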
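Compounds were titrated across several concentrations (up to approximately 40 uM) and incubated 48 hours with HeLa miR-21-FLuc reporter cells (miR-21 target sequence downstream of FLuc, endogenous miR-21). Readout was firefly luciferase luminescence after lytic detection reagent.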
Nrf2 activator: Nrf2 pathway activation | AREc32 ARE-luciferase reporter (MCF7-derived line), luminescence, 24 h | Potency, µM (doses to about 46.1 µM), for inactives: at the highest dose activation, usual class: activators | 0.31% of 410,000 active; further: potency means the concentration at half of the fitted maximal effect; % of control where 0% means no effect; nearly all actives have a fitted effect of over 65% in size
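For detection, Steady-Glo was added and plates sat 30 min at RT; before that, AREc32_Fluc cells grown overnight in OPTI-MEM/5% FBS had been treated with 23 nL compound for 24 hr at 37 deg C.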
ClpP mod: qHTS Assay for Activators of ClpP. ATP-dependent Clp protease proteolytic subunit (Bacillus subtilis (strain 168)), P80244. purified B. subtilis ClpP, FRET peptide cleavage, 20 min. Potency, µM (series often up to 57.5 µM), for the others: at the top dose activity change, negative = active. 1.9% of 340,000 active. AID 651965, 2013; active means well fitted falling curve with a large enough effect; inconclusive means small, poorly fitted or top-dose-only effect; inactive means no such curve, though single readings can be large or run the other way; further: potency means the concentration at half of the fitted maximal effect; the source files actives as falling curves though it sought activators and does not explain the sign; nearly all actives have a fitted effect of over 65% in size
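Buffer: 100 mM Tris/HCl pH8, 100 mM KCl, 0.05% low protease BSA, 2.5% glycerol, 0.01% Tween-20. ClpP 10 microg/mL final; 20 min RT; delta FRET normalized to ADEP and DMSO controls.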
The depositor's hits bear a star; ? = inconclusive; · = no result; [ ] = remark or other dose. Rows were chosen to be rich in hits. Some 3.7% of all compounds tested hit in one or more screens of this group. Unless noted, the call rests on the fitted dose curve; in most records, active means well fitted curve in the direction sought with a large enough effect; inconclusive means small, poorly fitted or top-dose-only effect, or another doubt; inactive means no such curve, though single readings can be large; an effect the other way counts as inactive or inconclusive.

The chains behind the UniProt entries cited, without tags or fusion partners.
ATP-dependent Clp protease proteolytic subunit (Bacillus subtilis (strain 168)), P80244, UniProt P80244, whole entry, looked up: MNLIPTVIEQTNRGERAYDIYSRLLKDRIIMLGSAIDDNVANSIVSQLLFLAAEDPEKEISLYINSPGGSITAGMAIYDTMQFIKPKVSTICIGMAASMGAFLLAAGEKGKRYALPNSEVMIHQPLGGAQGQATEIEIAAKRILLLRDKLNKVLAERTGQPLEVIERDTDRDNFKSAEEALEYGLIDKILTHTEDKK

SMILES	A549 viability	p53 reactivation	Nrf2 block	miR-21 reporter	Nrf2 activator	ClpP mod
O=C(NCc1cccnc1)C(=O)NCC(c1ccco1)N1CCN(c2ccccc2F)CC1 (stereo not given)	8%	-4%	-4%	-9%	1%	18µM*
O=C(NCc1ccc(Cl)cc1)C(=O)NCC(c1cccnc1)N1CCN(c2ccc(F)cc2)CC1 (stereo not given)	-21%	-3%	21µM*	27%	4%	·
COc1ccc(-c2ccc3ncnc(NCc4cccs4)c3c2)cc1	21%	·	0%	·	·	·
Cc1ccc(CNC(=O)CCC(=O)Nc2nnc(C3CCCCC3)s2)cc1	0%	0%	9%	0%	0%	28µM*
O=C(Cc1ccc([N+](=O)[O-])cc1)Nc1nnc(C2CC2)s1	2%	3%	-1%	-5%	-1%	25µM*
CCC(=O)Nc1nonc1-c1nc2ccccc2n1CCC(C)C	-11%	-23%	?	2%	8%	28µM*
CCC(=O)Nc1nonc1-c1nc2ccccc2n1N(C(=O)CC)C(=O)CC	4%	1%	-11%	-7%	0%	28µM*
CCc1nnc(SC(CC)C(=O)Nc2cc(C)ccc2C)c2cc3occc3n12 (stereo not given)	5%	·	?	-4%	0%	-11%
CC(=O)Nn1c(-c2ccccc2)cc2ccccc21	-3%	4%	-11%	-5%	0%	14µM*
COc1ccccc1N1CCN(C(=O)c2cccc(S(=O)(=O)Nc3ccccc3F)c2)CC1	2%	7%	-10%	·	-2%	-3%
COc1ccc(NS(=O)(=O)c2c(C)cc(C)cc2C)cc1	?	-5%	21µM*	18%	0%	0%
COc1cccc(NS(=O)(=O)c2c(C)cc(C)cc2C)c1	0%	-9%	-4%	8%	2%	-1%
c1nc(N2CCOCC2)c2c3c(sc2n1)CCCC3	3%	-5%	-15%	-16%	-1%	-19%
O=C(c1ccccc1)N1CCN(c2ncnc3sc4c(c23)CCC4)CC1	-4%	-9%	16µM*	16%	1%	-5%
Cc1ccc(Cl)cc1N1CCN(C(=O)c2cnc(N3CCOCC3)c3ccccc23)CC1	-19%	·	·	?	-4%	32µM*
Cc1ccc(N2CCN(C(=O)c3cnc(N4CCCCC4)c4ccccc34)CC2)c(C)c1	-3%	·	·	10%	-1%	35µM*
O=C(c1cnc(N2CCN(c3ncccn3)CC2)c2ccccc12)N1CCN(c2ncccn2)CC1	-2%	-6%	?	29%	0%	-7%
O=C(c1cnc(N2CCCCC2)c2ccccc12)N1CCN(c2ccc(Cl)cc2)CC1	-6%	·	·	16%	-1%	25µM*
Nc1ccc(S(=O)(=O)N2CCN(S(=O)(=O)c3ccc4c(c3)OCCO4)CC2)cc1	3%	·	4%	·	·	·
Cc1cc(C)c(S(=O)(=O)NCc2ccc3c(c2)CCN3C(=O)c2ccccc2)c(C)c1	-15%	·	·	-14%	2%	1%
Cc1[nH]nc2c1C1(C(=O)N(Cc3ccc(Cl)cc3)c3ccccc31)C(C#N)=C(N)O2 (stereo not given)	-6%	-19%	21µM*	9%	0%	-1%
CC(C)(O)c1cc2ccc(C#Cc3ccsc3)cc2c(=O)o1	1%	-3%	14%	·	5µM*	4%
N#Cc1cccc(NC(=O)c2cc(C3CCCCN3S(=O)(=O)c3cccc4cccnc34)on2)c1 (stereo not given)	·	·	·	·	-1%[9.22 µM]	-3%
COc1ccc(C2NC(=S)NC3=C2CCCC3=C2SCCS2)cc1 (stereo not given)	-21%	?	?	-16%	3.2µM*	·
CCOC(=O)c1ccc(NC(=O)CCc2nc(-c3ccccc3Cl)no2)cc1	-19%	-3%	16µM*	18%	0%	-2%
Cc1nn(C)c(Cl)c1NC(=O)OCc1ccc(Cl)cc1Cl	1%	-2%	16µM*	9%	0%	7%
Cc1nnsc1NC(=O)OCc1ccc(Cl)cc1Cl	-21%	-2%	?	-1%	2%	-11%
Cc1cccc(CCNC(=O)c2cc3c(=O)[nH]c4ccc(C)cc4c3s2)c1	1%	·	?	0%	-1%	-14%
CCOC(=O)c1c(NC(=O)CN2CCCCC2)sc2c1CCN(C(=O)OCC)C2	?	6%	23µM*	0%	5%	-30%
CC(=O)c1cccc(NC(=O)CSc2ccc(-c3ccccn3)nn2)c1	-13%	26%	21µM*	5%	3%	-2%
CCc1ccc(NC(=O)CSc2ccc(-c3ccccn3)nn2)cc1	?	9%	21µM*	-1%	6%	-5%
CC(C)c1ccc(NC(=O)CSc2nnc(-c3ccccn3)n2C)cc1	-3%	-14%	-3%	-13%	1%	28µM*
Cc1cccc(C)c1NC(=O)N1CCC(C(N)=O)(N2CCCCC2)CC1	3%	·	1%	-1%	-1%	1%
CCOC(=O)N1CCC(n2c(SCC(=O)Nc3ccccc3OC)nc3ccccc3c2=O)CC1	·	2%	15µM*	-12%	0%	-1%
CCOC(=O)N1CCC(n2c(SCC(=O)NCc3ccccc3)nc3ccccc3c2=O)CC1	-3%	6%	-15%	-5%	0%	-1%
Cc1cc(C)c2c(n1)sc1c(O)cc(=O)[nH]c12	5%	0%	?	-3%	0%	32µM*
COc1ccc(-c2cc(C(F)(F)F)c3c(n2)sc2c(O)cc(=O)[nH]c23)c(OC)c1	-3%	1%	-19%	-11%	10%	0%
Cc1ccc(NC(=O)CCCCCN2C(=O)[C@@H]3Cc4ccccc4CN3C2=O)c(Cl)c1	-21%	-3%	23µM*	14%	0%	-3%
CCCc1cc(=O)[nH]c(SCC(=O)NC(=O)OCC)n1	-1%	17%	6%	1%	0%	-1%
CCCc1cc(=O)[nH]c(SCC(=O)Nc2sc(C(N)=O)c(C)c2C(=O)OCCOC)n1	-3%	-3%	5.2µM*	·	-1%	-5%
CCCCc1n[nH]c2c1/C(=N/O)CC(c1ccccc1)C2 (stereo not given)	1%	-6%	?	-15%	2%	18µM*
O=C(Nc1ccccc1)c1snc2c(=O)[nH]cnc12	1%	0%	3%	-34%	2%	·
CCOC(=O)c1sc2nc[nH]c(=O)c2c1C	2%	6%	-29%	-10%	3%	32µM*
COc1cccc(CNC(=O)c2sc3nc[nH]c(=O)c3c2C)c1	5%	·	·	2%	0%	40µM*

3 compounds from above with just p53 reactivation.
compound	p53 reactivation
CCCc1cc(=O)[nH]c(SCC(=O)Nc2sc(C(N)=O)c(C)c2C(=O)OCCOC)n1	-3%
CCCCc1n[nH]c2c1/C(=N/O)CC(c1ccccc1)C2 (stereo not given)	-6%
O=C(Nc1ccccc1)c1snc2c(=O)[nH]cnc12	0%

5 compounds out of the list above, sorted by their value in Nrf2 block, low to high.
Molecule	Nrf2 block
CCCc1cc(=O)[nH]c(SCC(=O)Nc2sc(C(N)=O)c(C)c2C(=O)OCCOC)n1	5.2µM*
CCOC(=O)N1CCC(n2c(SCC(=O)Nc3ccccc3OC)nc3ccccc3c2=O)CC1	15µM*
O=C(c1ccccc1)N1CCN(c2ncnc3sc4c(c23)CCC4)CC1	16µM*
CCc1ccc(NC(=O)CSc2ccc(-c3ccccn3)nn2)cc1	21µM*
CCOC(=O)c1c(NC(=O)CN2CCCCC2)sc2c1CCN(C(=O)OCC)C2	23µM*
